# Measured affinities in a library of Ab-14 light chain variants

Antigen: PDVDLGDISGINAS, a 14-residue peptide of the SARS-CoV-2 spike HR2 region.

Each scFv is VH, a 15-residue (Gly4Ser)3 linker, VL, as in the parent Ab-14, and differs from it in the CDRs of the light chain only.
VH: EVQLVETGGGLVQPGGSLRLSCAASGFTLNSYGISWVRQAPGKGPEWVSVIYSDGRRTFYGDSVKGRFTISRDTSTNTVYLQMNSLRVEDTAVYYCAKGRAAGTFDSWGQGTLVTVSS
VL: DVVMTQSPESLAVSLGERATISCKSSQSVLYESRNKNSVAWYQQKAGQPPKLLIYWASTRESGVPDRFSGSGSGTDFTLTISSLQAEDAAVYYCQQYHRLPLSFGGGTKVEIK

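Designed CDR sequences, proposed from the first random library and measured here. Several design methods are mixed in this list. The scFvs were displayed on barcoded MATa yeast, the peptide on MATalpha yeast. The frequency of each diploid, read from paired DNA barcodes, reflects how well the two displayed proteins bind. Read counts were normalised to the haploid input and turned into Kd by a linear fit to BCL2-family pairs of known affinity, for each replicate. Mating was done six times.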

Positions count from residue 1 of the parent VL; S26P puts P in place of S. This list holds designs with at most six substitutions. Numbers give log10(Kd / nM), so 0 is 1 nM and 3 is 1 µM. Smaller is tighter. Where no diploid with the target was found in that replicate, the entry reads "nd": below detection, most likely a poor binder, though not proof of it. Of ten entries with the parent sequence, four were seen in most replicates (averages 0.34 to 2.37), three in one and three in none, so single entries are noisy.

changes,"log10 Kd, replicates",empty controls
S26P+W56G+T59L+Y97E,1.42 1.70 1.12 nd nd nd,1 of 18 (1.90)
K24H+Q27P+L30A+W56N+S62Q,-0.01 -0.08 -0.19 -0.15 -0.34 -0.06,0 of 18
S25Y+S28L+Y31E+K36M+W56N+S62E,0.21 0.02 0.10 -0.15 0.10 0.15,3 of 18 (1.98)
Y31T+K36N,1.87 1.97 2.44 2.66 1.95 nd,0 of 18
S25V+V29E+N35Q+W56N+T59Q,0.97 0.59 0.71 0.41 0.70 0.93,3 of 18 (3.25)
R34N+S62V+H98S,1.76 1.57 0.99 1.30 1.19 0.99,1 of 18 (1.83)
S25V+V29F+S33D+W56N,-0.25 -0.28 -0.33 -0.48 -0.48 -0.28,2 of 18 (3.70)
S25Y+R34D,1.08 1.27 0.95 0.94 1.18 1.28,3 of 18 (2.77)
V29K+S62Q+P101R+S103Y,nd nd nd nd nd nd,0 of 18
S25L+S26D+V29T+W56N,-0.15 -0.38 -0.20 -0.31 -0.46 -0.09,1 of 18 (2.18)
S25L+W56N+T59Q+E61M,0.13 0.37 -0.18 -0.04 -0.08 0.21,0 of 18
K24R+R60P,nd nd nd nd nd nd,0 of 18
S25L+S26P+V29E+L30G+W56N,0.05 0.05 -0.10 -0.28 -0.16 0.18,0 of 18
S25F+N35M+K36Y+W56N,0.40 0.61 0.14 0.26 1.34 0.16,0 of 18
S25M+Y31D+S62N,1.26 1.47 0.81 1.42 1.29 1.37,3 of 18 (3.40)
Q27N+E32D+S33G+R34T,0.85 1.35 0.40 0.63 0.97 1.89,0 of 18
S25D+V29D+R99H,2.52 0.63 2.96 2.06 2.95 2.73,1 of 18 (2.91)
V29E+W56Q+E61V+Y97K,0.18 -0.32 -0.22 0.19 -0.51 -0.17,0 of 18
S25H+S33Y+W56E+H98A,0.40 0.41 0.40 0.33 0.06 0.43; 0.67 0.27 0.50 0.32 0.43 0.50; 0.07 0.06 -0.08 -0.03 0.06 0.32; 0.39 0.33 0.18 0.05 0.25 0.20; nd 1.24 nd 2.42 1.89 1.83,2 of 90 (3.33)
W56R+Q95Y+L100D+S103M,nd nd nd nd nd nd,0 of 18
S25L+V29E+S33D+W56N+T59Q+E61L,0.23 0.23 -0.19 0.07 -0.11 0.05,1 of 18 (2.48)
S26Q+S28K+R34M+W56E+S62A+P101S,nd nd nd nd nd nd,0 of 18
S25L+L30D+W56N+S62Q,-0.09 -0.30 -0.45 -0.53 -0.53 -0.31,0 of 18
S25V+W56E+T59H,0.20 0.08 -0.03 -0.36 -0.17 -0.19,5 of 18 (3.02)
S26P+V29Q+L30E+W56H+S62D,-0.04 -0.30 -0.08 -0.39 -0.15 -0.02,1 of 18 (2.34)
S25L+V29H+K36F+W56N,0.13 0.15 0.09 0.05 -0.10 0.23,0 of 18
S25L+W56N+A57G+T59Q,-0.31 -0.32 -0.52 -0.62 -0.41 -0.24,1 of 18 (2.55)
S25V+Y31Q+E32L+K36Q+W56E+S62A,0.03 -0.09 -0.06 -0.12 -0.17 -0.08,1 of 18 (2.45)
Q27I+V29G+N35M+W56E,0.65 0.26 0.19 0.23 -0.12 0.27,1 of 18 (2.26)
Q27D+N35R+H98S,nd 2.26 nd nd nd 2.72,0 of 18
A57G+L100T,nd nd nd nd nd nd,2 of 18 (2.48)
Y31D+R34E,2.04 2.20 1.55 1.87 1.24 1.88,2 of 18 (2.95)
S25L+V29Y+L30G+W56N,-0.01 -0.19 -0.37 -0.41 -0.16 -0.35,0 of 18
S25L+S26R+V29T+L30P+K36Q,2.00 1.20 1.81 1.70 2.04 1.35,2 of 18 (2.36)
S25L+V29Y+W56N+Q96S,0.01 -0.06 0.08 -0.13 0.07 0.02,0 of 18
S25M+S26P+V29H+W56N,-0.06 0.02 -0.20 0.00 -0.12 0.01,3 of 18 (4.23)
S25L+S26P+V29Q+W56N+E61C,0.18 -0.08 -0.03 -0.04 0.07 0.24,1 of 18 (2.45)
S25T+V29L+S62N+P101S,nd nd nd nd nd nd,0 of 18
K24V+W56A,1.04 1.37 0.13 0.51 2.51 1.81,0 of 18
S25V+V29F+S38N+W56D,0.30 0.02 0.01 0.01 -0.03 0.33,0 of 18

Top 3 of the variants detected in all replicates, tightest first:

changes,"log10 Kd, replicates",empty controls
S25L+W56N+A57G+T59Q,-0.31 -0.32 -0.52 -0.62 -0.41 -0.24,1 of 18 (2.55)
S25L+L30D+W56N+S62Q,-0.09 -0.30 -0.45 -0.53 -0.53 -0.31,0 of 18
S25V+V29F+S33D+W56N,-0.25 -0.28 -0.33 -0.48 -0.48 -0.28,2 of 18 (3.70)

Values of this round are not directly comparable with the first-round values of the same sequences. A sequence that the file lists under several names has all its replicates listed entry by entry, parted by semicolons. Three control strains display no target. For all light chain designs, 4% of the pairings with them gave a signal, with a median of 2.64 and one signal in twenty below 1.59, so weak values seen in few replicates may be background. Also given: how often the same scFv was detected with the empty control strains, with their mean in brackets. The authors' rule: three or more of the six replicates give a measured affinity, fewer mean a poor binder.

Values reported by Li et al. 2023, doi:10.1038/s41467-023-39022-2 (FLAb copy).